Compound activity deposited in PubChem BioAssay by National Center for Advancing Translational Sciences (NCATS).
In the library only some 3.7% were active in any assay of this set; here they are far more common.
A549 viability = kills or reduces viability of A549 cells in Nrf2 counter-screen. 0.16% of 390,000 active. AID 504648. Potency, µM (series often up to 46 µM), for the others: at the highest dose activity change, negative = cytotoxicity, most hits filed as inhibitors. A549 ARE-Fluc cells, CellTiter-Fluor viability, 18-24 h; note: potency is the fitted concentration of half-maximal effect; % is set by controls: 0 for no effect and ±100 for the full control effect
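A549 ARE-Fluc cells in 5% FBS OPTI-MEM, 5000 cells/well, rested 2 h then exposed to compounds in concentration-response for 18-24 h at 37 °C. Viability by CellTiter-Fluor fluorescence (Ex 405/Em 525) after 30 min; luciferase luminescence (BugLite, 15 min, RT) read afterwards.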
miR-21 reporter = raises the signal of a miR-21 reporter. Potency, µM (highest dose often 38.3 µM), without a hit: top-dose reporter change, positive = more light. 340,000 tested, under 10 active. HeLa miR-21 FLuc reporter, luciferase, 48 h; active = well fitted rising curve with a large enough effect; inconclusive = small, poorly fitted or top-dose-only effect; inactive = no such curve, though single readings can be large or run the other way;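 further: % of control where 0% means no effect; miR-21 action dims this reporter so a rising signal means less miR-21 action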
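Compounds were titrated across several concentrations (up to approximately 40 uM) and incubated 48 hours with HeLa miR-21-FLuc reporter cells (miR-21 target sequence downstream of FLuc, endogenous miR-21). Readout was firefly luciferase luminescence after lytic detection reagent.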
Nrf2 ARE act = activators of Nrf2 (ARE) signaling; 0.31% of 410,000 active; Potency, µM (series often up to 46.1 µM), without a hit: top-dose activation, actives largely listed as activators; AREc32 ARE-luciferase reporter (MCF7-derived line), luminescence, 24 h; note: potency is the fitted concentration of half-maximal effect; % of control where 0% means no effect; nearly all actives have a fitted effect of over 65% in size
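Steps: seed AREc32_Fluc cells (1000/well, 5% FBS OPTI-MEM); incubate overnight at 37 deg C; add 23 nL compound; incubate 24 hr; add Steady-Glo; hold 30 min RT; read luminescence.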
Nrf2 block = inhibitors of Nrf2 signaling. A549 ARE-Fluc reporter, luciferase luminescence, 18-24 h. Potency, µM (titrated, usually from 46 µM), without a hit: top-dose activity change, negative = inhibition, hits mostly inhibitors. 2.1% of 360,000 active; note: potency is the fitted concentration of half-maximal effect; % is set by controls: 0 for no effect and ±100 for the full control effect; nearly all actives have a fitted effect of over 60% in size
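Two sequential reads on A549 ARE_Fluc cells exposed to compound for 18-24 h: a CellTiter-Fluor fluorescence read for viability, then a luciferase luminescence read for Nrf2/ARE activity.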
ClpP mod = qHTS Assay for Activators of ClpP | ATP-dependent Clp protease proteolytic subunit (Bacillus subtilis (strain 168)), P80244 | purified B. subtilis ClpP, FRET peptide cleavage, 20 min | Potency, µM (highest dose often 57.5 µM), for inactives: at the top dose activity change, negative = active | 1.9% of 340,000 active | AID 651965, 2013; active = well fitted falling curve with a large enough effect; inconclusive = small, poorly fitted or top-dose-only effect; inactive = no such curve, though single readings can be large or run the other way; note: potency is the fitted concentration of half-maximal effect; the source files actives as falling curves though it sought activators and does not explain the sign; nearly all actives have a fitted effect of over 65% in size
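ClpP 10 microg/mL final, pH 8 Tris/KCl buffer with BSA, glycerol, Tween-20; compound pinned in; FRET-FV substrate; RT 20 min; Ex320/Em430; ΔFRET vs ADEP 5.8 microM, DMSO, no enzyme.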
p53 reactivator = re-activators of mutant p53; H1299 p53-A138V BP100-luciferase reporter, luminescence, 24 h; Potency, µM (series often up to 92.2 µM), inactives show top-dose activity change, positive = activation, usual class: activators; 0.063% of 320,000 active; note: potency is the fitted concentration of half-maximal effect; % of control where 0% means no effect; nearly all actives have a fitted effect of over 45% in size
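p53-null H1299 cells stably carrying temperature-sensitive p53-A138V and a BP100-luciferase reporter were pinned with compounds (4-point, 1:5 series) and held 24 hrs at 37 deg C. Luminescence was read 10 min after detection reagent.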
* marks the source's active call; other numbers are inactive results; [ ] = another dose, or the depositor's remark. Unless noted, calls come from the whole dose curve; as a rule, active = well fitted curve in the direction sought with a large enough effect; inconclusive = small, poorly fitted or top-dose-only effect, or another doubt; inactive = no such curve, though single readings can be large; an effect the other way counts as inactive or inconclusive.

How did Cc1cc2cc3c(=O)[nH]c(=O)cc-3n(CC(O)C(O)C(O)CO)c2cc1C (stereo not given) do in these assays?
Nrf2 ARE act: -0.1%; ClpP mod: -3.2%

Results for Cc1cc2cc3c(=O)[nH]c(=O)nc-3n(CC(O)C(O)C(O)CO)c2cc1C (stereo not given) ?
A549 viability: inconclusive; Nrf2 ARE act: -0.1%; Nrf2 block: -9.4%; ClpP mod: 35.5µM*

How did COc1ccccc1N(CC(=O)N1CCC(C)CC1)S(=O)(=O)c1ccc(C)cc1 do in these assays?
A549 viability: -15.6%; miR-21 reporter: inconclusive; Nrf2 ARE act: 2.8%; Nrf2 block: 3.3%; ClpP mod: 1.1%

Results for Cc1[nH]nc2c1-c1nc3ccccc3nc1C(C)(C)C2 ?
A549 viability: 14.6µM*; miR-21 reporter: 28.4%; Nrf2 ARE act: -0.5%; Nrf2 block: 14.6µM*; ClpP mod: 14.1µM*; p53 reactivator: 17.3%

What do the screens show for `CC12CCC(C)(c3nc4ccccc4nc31)C2(C)C`?
A549 viability: 3.9%; miR-21 reporter: -1.3%; Nrf2 ARE act: -0.3%; Nrf2 block: 4.4%; p53 reactivator: -0.9%

What do the screens show for `COc1ccc(N2CCN(Cc3nnc(-c4cccc(Br)c4)o3)CC2)cc1`?
A549 viability: 2.0%; miR-21 reporter: 0.7%; Nrf2 ARE act: -0.2%; Nrf2 block: 11.4%; ClpP mod: -0.6%

Results for COC(=O)c1cc(Cc2ccc(N)c(C(=O)OC)c2)ccc1N ?
A549 viability: -8.4%; miR-21 reporter: 6.6%; Nrf2 ARE act: 3.2%; Nrf2 block: -5.3%; ClpP mod: 28.2µM*; p53 reactivator: -5.4%

Results for C=CCNC(=S)N/N=C(\C)c1ccccn1 ?
A549 viability: inconclusive; miR-21 reporter: inconclusive; Nrf2 ARE act: inconclusive; Nrf2 block: 0.581µM*; ClpP mod: -0.4%; p53 reactivator: inconclusive

Results for Cc1ccc(NC(=O)CSc2ccccc2NC(=O)c2ccccc2Cl)cc1Cl ?
A549 viability: inconclusive; miR-21 reporter: -11.6%; Nrf2 ARE act: 2.3%; Nrf2 block: 25.9µM*; ClpP mod: -1.5%; p53 reactivator: 1.2%

What do the screens show for `CC(C)C(C)NC(=O)COc1ccc(-c2ccccc2)cc1` (stereo not given)?
A549 viability: 0.1%; miR-21 reporter: -7.3%; Nrf2 ARE act: -0.3%; Nrf2 block: inconclusive; ClpP mod: 1.0%; p53 reactivator: 3.2%

Results for CC(C)C(C)NC(=O)COc1ccc(Sc2ccc(OCC(=O)NC(C)C(C)C)cc2)cc1 (stereo not given) ?
A549 viability: -14.2%; miR-21 reporter: 0.3%; Nrf2 ARE act: 0.5%; Nrf2 block: 20.6µM*; ClpP mod: -0.8%; p53 reactivator: -29.3%

How did CCC(=O)N1CCc2cc(CNS(=O)(=O)c3ccc(NC(=O)CC(C)C)cc3)ccc21 do in these assays?
A549 viability: 0.7%; miR-21 reporter: 2.4%; Nrf2 ARE act: 0.2%; ClpP mod: 1.1%

What do the screens show for `CCn1c(-c2ccco2)n[nH]c1=S`?
A549 viability: -4.9%; miR-21 reporter: -4.9%; Nrf2 ARE act: 0.3%; Nrf2 block: 3.3%; ClpP mod: inconclusive; p53 reactivator: -3.3%

How did CCCCn1c(-c2ccco2)n[nH]c1=S do in these assays?
A549 viability: 14.3%; miR-21 reporter: 6.1%; Nrf2 ARE act: -0.3%; Nrf2 block: -4.9%; ClpP mod: 22.4µM*; p53 reactivator: -0.1%

Results for CN1C(=O)c2ccccc2Sc2ccc(NC(=O)N3CCN(c4cccc(Cl)c4)CC3)cc21 ?
A549 viability: -11.1%; miR-21 reporter: inconclusive; Nrf2 ARE act: -1.2%; Nrf2 block: inconclusive; ClpP mod: -1.1%

How did O=C(NCCc1ccccc1)c1ccc(-c2ccc(F)c(F)c2)c2ccoc12 do in these assays?
Nrf2 ARE act: 1.2%; ClpP mod: 35.5µM*

What do the screens show for `O=C(NCCc1ccccc1)c1cccc2c(-c3ccc(F)c(F)c3)coc12`?
Nrf2 ARE act: 5.1%; ClpP mod: -15.6%

How did COc1ccc(CNC(=O)c2ccc(-c3ccc(F)c(F)c3)c3ccoc23)cc1OC do in these assays?
Nrf2 ARE act: 0.5%; ClpP mod: inconclusive

What do the screens show for `O=C(NCc1cccc(Cl)c1)c1ccc(-c2ccc(F)c(F)c2)c2ccoc12`?
Nrf2 ARE act: -0.2%[9.22 µM]; ClpP mod: 15.8µM*

Results for O=C(NCc1ccco1)c1ccc(-c2ccc(F)c(F)c2)c2ccoc12 ?
Nrf2 ARE act: 0.3%[9.22 µM]; ClpP mod: 35.5µM*

Results for O=C(NCc1ccccc1)c1ccc(-c2ccc(F)c(F)c2)c2ccoc12 ?
Nrf2 ARE act: 6.6%; ClpP mod: 4.9%

Results for CC(=O)Nc1ccc(S(=O)(=O)Nc2ccc(C)c([N+](=O)[O-])c2)cc1 ?
A549 viability: -8.1%; miR-21 reporter: 4.4%; Nrf2 ARE act: -0.5%; Nrf2 block: 25.9µM*; ClpP mod: -0.6%; p53 reactivator: 2.3%

Results for COc1ccc(C)cc1NS(=O)(=O)c1ccc(NC(=O)CN(c2cc([N+](=O)[O-])ccc2C)S(C)(=O)=O)cc1 ?
A549 viability: -15.2%; miR-21 reporter: inconclusive; Nrf2 ARE act: 4.7%; Nrf2 block: inconclusive; ClpP mod: -2.3%; p53 reactivator: 2.9%

How did Cc1cccc(NS(=O)(=O)c2ccc(NC(=O)CN(c3cc([N+](=O)[O-])ccc3C)S(C)(=O)=O)cc2)c1 do in these assays?
A549 viability: inconclusive; miR-21 reporter: inconclusive; Nrf2 ARE act: 2.7%; Nrf2 block: 18.4µM*; ClpP mod: -1.7%; p53 reactivator: -5.7%

How did COc1cc(NC(=O)c2ccc([N+](=O)[O-])o2)ccc1NC(=O)c1cccs1 do in these assays?
A549 viability: 23.1µM*; miR-21 reporter: 8.2%; Nrf2 ARE act: 11.2µM*; Nrf2 block: 5.8%; ClpP mod: -0.7%; p53 reactivator: inconclusive

Results for O=C(Nc1cccc(NC(=O)c2cccs2)c1)c1ccc([N+](=O)[O-])o1 ?
A549 viability: -9.7%; miR-21 reporter: 29.1%; Nrf2 ARE act: inconclusive; Nrf2 block: 16.0%; p53 reactivator: -13.8%

What do the screens show for `Cc1ccc(NC(=O)c2cccs2)cc1[N+](=O)[O-]`?
A549 viability: -10.8%; miR-21 reporter: -0.9%; Nrf2 ARE act: 14.1µM*; Nrf2 block: inconclusive; p53 reactivator: 8.5%

How did CCOc1ccccc1CNC(=O)c1[nH]c2ccccc2c1Sc1ccccc1 do in these assays?
A549 viability: -1.3%; miR-21 reporter: -16.6%; Nrf2 ARE act: 9.1%; Nrf2 block: inconclusive; ClpP mod: -28.4%

3 records picked at random from the list so far, as already listed:
What do the screens show for `O=C(NCCc1ccccc1)c1cccc2c(-c3ccc(F)c(F)c3)coc12`?
Nrf2 ARE act: 5.1%; ClpP mod: -15.6%

How did O=C(NCCc1ccccc1)c1ccc(-c2ccc(F)c(F)c2)c2ccoc12 do in these assays?
Nrf2 ARE act: 1.2%; ClpP mod: 35.5µM*

What do the screens show for `O=C(NCc1cccc(Cl)c1)c1ccc(-c2ccc(F)c(F)c2)c2ccoc12`?
Nrf2 ARE act: -0.2%[9.22 µM]; ClpP mod: 15.8µM*
